Chains of the proteins cited; added tags and fusions are not shown. Lines headed by an entry give the natural chain unless they say otherwise; changes in a name come on top.
UniProt P45984: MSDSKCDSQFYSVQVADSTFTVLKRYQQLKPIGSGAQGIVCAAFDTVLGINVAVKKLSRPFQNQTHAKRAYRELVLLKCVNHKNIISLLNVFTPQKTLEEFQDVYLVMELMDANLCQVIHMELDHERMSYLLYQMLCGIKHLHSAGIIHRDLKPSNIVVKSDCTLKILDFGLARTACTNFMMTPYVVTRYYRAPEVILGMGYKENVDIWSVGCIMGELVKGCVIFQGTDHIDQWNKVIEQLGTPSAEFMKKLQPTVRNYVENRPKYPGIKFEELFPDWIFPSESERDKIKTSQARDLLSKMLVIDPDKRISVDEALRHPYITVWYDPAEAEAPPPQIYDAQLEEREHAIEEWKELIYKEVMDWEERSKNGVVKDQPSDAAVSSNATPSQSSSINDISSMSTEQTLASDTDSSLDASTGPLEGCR
UniProt P53779: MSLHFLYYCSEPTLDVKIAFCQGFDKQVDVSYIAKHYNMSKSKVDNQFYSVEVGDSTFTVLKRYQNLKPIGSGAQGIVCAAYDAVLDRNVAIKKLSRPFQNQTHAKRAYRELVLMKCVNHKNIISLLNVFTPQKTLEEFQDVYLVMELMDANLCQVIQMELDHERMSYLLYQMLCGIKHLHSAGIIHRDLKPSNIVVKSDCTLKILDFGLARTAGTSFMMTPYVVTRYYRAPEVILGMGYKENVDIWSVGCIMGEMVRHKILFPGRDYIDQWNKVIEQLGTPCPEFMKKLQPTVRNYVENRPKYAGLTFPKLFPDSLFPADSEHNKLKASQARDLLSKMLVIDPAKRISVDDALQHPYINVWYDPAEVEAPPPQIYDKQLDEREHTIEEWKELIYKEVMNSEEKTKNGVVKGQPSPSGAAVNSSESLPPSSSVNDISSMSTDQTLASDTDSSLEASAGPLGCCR

In ChEMBL document CHEMBL1142440, “Discovery, synthesis and biological evaluation of isoquinolones as novel and highly selective JNK inhibitors (1)” (Bioorg Med Chem, 2008):

How the values were obtained:
[1] = target: Mitogen-activated protein kinase 9 (Homo sapiens, UniProt P45984); test: Inhibition of JNK2
[2] = target: Mitogen-activated protein kinase 10 (Homo sapiens, UniProt P53779); test: Inhibition of JNK3

- IC50 [1]: 34 nM
- IC50 [2]: 30 nM
SMILES: COC(=O)c1c(-c2ccccc2)c2cc(Br)ccc2c(=O)n1Cc1ccc(S(C)(=O)=O)cc1
